By UniProt entry, the sequences of proteins in these tests, tags left out.
UniProt P25104, whole entry: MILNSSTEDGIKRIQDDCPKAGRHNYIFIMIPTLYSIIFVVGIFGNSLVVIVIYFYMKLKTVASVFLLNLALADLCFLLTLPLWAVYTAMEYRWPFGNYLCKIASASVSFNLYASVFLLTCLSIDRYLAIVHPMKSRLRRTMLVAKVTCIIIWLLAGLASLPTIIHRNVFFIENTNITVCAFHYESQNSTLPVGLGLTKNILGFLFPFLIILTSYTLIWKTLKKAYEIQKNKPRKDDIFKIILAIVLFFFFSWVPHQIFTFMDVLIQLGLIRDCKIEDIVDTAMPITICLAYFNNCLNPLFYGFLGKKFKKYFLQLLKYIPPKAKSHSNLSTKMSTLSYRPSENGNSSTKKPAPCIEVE

According to patent US20070105096A1:

Target: type I angiotensin II receptor (AT1), bovine (bovine) (UniProt P25104)
Assay: cell-based or functional assay

human angiotensin II (manufactured by Bachem) (from UniProt P01019 25-476) (peptide)
Renilla reniformis luciferase activity (CRE reporter), host GBCRC6 with pAGal9-AT1: 132 fold
